Measured values: article PMC2744999

How the values were obtained:
[1] = molecular target: full length carboxy-6 × His tagged STC1 (STC1-HT), human Stanniocalcin-1 (human) (UniProt P52823); assay: SEC; data not shown
[2] = molecular target: full length carboxy-6 × His tagged STC1 (STC1-HT), human Stanniocalcin-1 (human) (UniProt P52823); assay: SAXS; 4°C, 60 mM MES 200 mM NaCl pH 6.5, 0.15 and 0.18 mg/mL; molecular mass from I(0) with BSA as standard
[3] = molecular target: full length carboxy-6 × His tagged STC1 (STC1-HT), human Stanniocalcin-1 (human) (UniProt P52823); assay: dynamic light scattering; recombinant STC1 sample inspected before SAXS for monodispersity

Measured: stoichiometry N

full length carboxy-6 × His tagged STC1 (STC1-HT), human Stanniocalcin-1 (from UniProt P52823-1 34-247) (natural protein)
2: all assays above
